Ab-14 heavy chain CDR variants: yeast mating affinities

From the AlphaSeq antibody data of Li et al. 2023 (doi:10.1038/s41467-023-39022-2), copy in the FLAb collection.

Target: peptide PDVDLGDISGINAS, taken from heptad repeat 2 (HR2) of SARS-CoV-2 spike.

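These sequences belong to a second round, designed from the earlier measurements on random variants of the parent. Group labels follow the data file (Ctrl: baseline library sampled from a position-specific scoring matrix, with some repeated check sequences; Rand: our label for a block that the file lists under HC and that is probably the random mutants of the ten best first-round binders; GP: Gaussian process model; GPLM: also part of the Gaussian process libraries; HC: hill climbing; Gen: genetic algorithm; Gibbs: Gibbs sampling; a sequence that several methods proposed may carry one label only). AlphaSeq pools MATa yeast showing the antibodies with MATalpha yeast showing the peptide. The frequency of each diploid, read from paired DNA barcodes, reflects how well the two displayed proteins bind. Each replicate has its own calibration line, from reference interactions of the BCL2 family. Mating was done six times.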

Parent: Ab-14, a human scFv built as VH, a 15-residue (Gly4Ser)3 linker, VL. Only the CDRs of the heavy chain vary.
VH: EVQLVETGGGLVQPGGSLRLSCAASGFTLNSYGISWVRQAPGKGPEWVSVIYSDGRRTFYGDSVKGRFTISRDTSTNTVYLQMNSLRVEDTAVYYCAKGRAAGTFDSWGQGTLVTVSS
VL: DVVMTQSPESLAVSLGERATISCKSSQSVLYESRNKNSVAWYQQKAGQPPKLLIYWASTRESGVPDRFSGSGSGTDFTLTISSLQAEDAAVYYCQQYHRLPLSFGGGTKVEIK

Each variant's VH is given in full.
This list holds designs with at most six substitutions.
Values are apparent Kd, the geometric mean of the replicates that gave a signal; lower means stronger binding.
An entry "nd" has no value in the source: the pair was not observed among the diploids in any replicate. This suggests poor binding but is not conclusive.
As a blank, each scFv also met three strains without target: over all heavy chain designs, 1% of these pairings were detected, typically at 120 nM and seldom below 7.0 nM.

The variant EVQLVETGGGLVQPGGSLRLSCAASGFTLNSYGISWVRQAPGKGPEWVSVIYSDGRRTFYHDSVKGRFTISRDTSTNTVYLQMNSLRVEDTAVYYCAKGRADGTNWSWGQGTLVTVSS [Ctrl] showed nd (0 of 6 replicates). The variant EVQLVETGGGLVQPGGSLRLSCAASGFWLNSYGISWVRQAPGKGPEWVSVIYSDGRRTFYQDSYKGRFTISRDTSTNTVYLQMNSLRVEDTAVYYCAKGRNALTFDSWGQGTLVTVSS [Ctrl] gave nd (0 of 6 replicates). The variant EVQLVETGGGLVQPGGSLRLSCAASGFTLSSYGISWVRQAPGKGPEWVSVIYSDGRRTFYGDSVAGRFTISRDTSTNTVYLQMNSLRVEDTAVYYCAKVRAAGLFDSWGQGTLVTVSS [Ctrl] showed nd (0 of 6 replicates). The variant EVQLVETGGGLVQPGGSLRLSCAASGFNLNSYGISWVRQAPGKGPEWVSVIYSDGRRTFYGDSVKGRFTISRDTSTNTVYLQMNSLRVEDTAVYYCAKGMQAGTFDSWGQGTLVTVSS [GP_Gen] showed 11 nM (1 of 6 replicates). With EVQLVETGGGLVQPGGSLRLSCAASGFTLNSYGISWVRQAPGKGPEWVSVIYSDGKRTFYGDSVKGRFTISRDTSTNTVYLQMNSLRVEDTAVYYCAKGRNAGTFCSWGQGTLVTVSS [Ctrl] the result was nd (0 of 6 replicates). The variant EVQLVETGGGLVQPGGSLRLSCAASGETLNSYGISWVRQAPGKGPEWVSVIYSDGRRTFYGDSVKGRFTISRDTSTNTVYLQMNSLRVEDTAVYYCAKGRAAGTFDVWGQGTLVTVSS [Ctrl] showed 1.6 µM (2 of 6 replicates). With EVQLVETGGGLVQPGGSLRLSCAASGFELNSYGISWVRQAPGKGPEWVSVIYSDGRRTFYQDSVKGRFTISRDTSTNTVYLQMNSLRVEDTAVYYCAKGRTAGTFDSWGQGTLVTVSS [GPLM_Gen] the result was 700 pM (6 of 6 replicates). For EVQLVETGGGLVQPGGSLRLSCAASGFTLYEYGISWVRQAPGKGPEWVSVIYSDGRRTFYGDSVKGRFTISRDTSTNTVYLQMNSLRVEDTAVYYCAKGRAAGTFDTWGQGTLVTVSS [GP_HC], the assay gave 21 nM (6 of 6 replicates). With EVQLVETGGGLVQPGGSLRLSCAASGFSLNSYGISWVRQAPGKGPEWVSVIYSDGRRTFYEDSVKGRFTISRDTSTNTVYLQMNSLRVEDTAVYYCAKGRAAGTFLSWGQGTLVTVSS [Ctrl] the result was 3.3 nM (5 of 6 replicates).

With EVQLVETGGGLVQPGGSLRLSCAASGFHLNDYGISWVRQAPGKGPEWVSVIYSDGRRTYYIDSVKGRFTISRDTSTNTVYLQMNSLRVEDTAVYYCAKGRAAGTFDSWGQGTLVTVSS [GP_HC] the result was 13 nM (5 of 6 replicates). The variant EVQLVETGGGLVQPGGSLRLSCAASGFTLNSYGISWVRQAPGKGPEWVSVIYSDGRRTFYEDDVKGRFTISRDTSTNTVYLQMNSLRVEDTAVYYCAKGREAGTFDLWGQGTLVTVSS [Ctrl] gave 29 nM (6 of 6 replicates). With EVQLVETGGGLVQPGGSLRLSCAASGFDLNSYGISWVRQAPGKGPEWVSVIYSDGRRTFYIDSVKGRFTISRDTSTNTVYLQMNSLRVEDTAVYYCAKGRAAGTFNVWGQGTLVTVSS [GP_HC] the result was nd (0 of 6 replicates). For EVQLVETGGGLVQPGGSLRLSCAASQDTLNSYGISWVRQAPGKGPEWVSVIYSDGRRTFYEDSVKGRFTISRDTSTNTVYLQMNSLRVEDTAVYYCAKGRAAATFDSWGQGTLVTVSS [Ctrl], the assay gave nd (0 of 6 replicates). With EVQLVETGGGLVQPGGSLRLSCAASGFTLNEYGISWVRQAPGKGPEWVSVIYSDGRRTFYGDSVKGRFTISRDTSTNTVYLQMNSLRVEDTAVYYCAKGRIAGTFDMWGQGTLVTVSS [GPLM_HC] the result was 4.4 nM (6 of 6 replicates). With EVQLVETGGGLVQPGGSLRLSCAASGFDLNSYGISWVRQAPGKGPEWVSVIYSDGRRTFYADSVKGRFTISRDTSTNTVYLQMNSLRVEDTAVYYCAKGNTAGTFDSWGQGTLVTVSS [GP_Gen] the result was 800 pM (6 of 6 replicates). For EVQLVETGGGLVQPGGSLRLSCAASKFTLNSYGISWVRQAPGKGPEWVSVIYSDGKRTFYKDSVKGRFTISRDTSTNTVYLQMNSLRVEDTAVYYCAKGRTAGTFDSWGQGTLVTVSS [GP_Gibbs], the assay gave 29 nM (2 of 6 replicates). For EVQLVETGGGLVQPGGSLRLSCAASGDTLNSYGISWVRQAPGKGPEWVSVIYSDGRRTFYGDSVKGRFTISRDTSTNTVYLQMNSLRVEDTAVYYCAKGEAAGTFDSWGQGTLVTVSS [Ctrl], the assay gave 55 nM (2 of 6 replicates). The variant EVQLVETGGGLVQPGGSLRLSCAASGFLLNDYGISWVRQAPGKGPEWVSVIYSDGRRTFYKDSVKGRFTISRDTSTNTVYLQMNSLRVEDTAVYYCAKGRQAGTFDSWGQGTLVTVSS [GP_HC] gave 7.1 nM (6 of 6 replicates).

With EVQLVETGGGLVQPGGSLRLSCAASGFTLDSYGISWVRQAPGKGPEWVSVIYSDGRRTFYGDSVKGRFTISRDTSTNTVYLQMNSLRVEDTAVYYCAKGRAAGTALAWGQGTLVTVSS [Rand] the result was nd (0 of 6 replicates). The variant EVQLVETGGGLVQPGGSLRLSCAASKFTLNSYGISWVRQAPGKGPEWVSVIYSDGRRTFYEDSVKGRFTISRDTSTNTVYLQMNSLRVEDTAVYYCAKGRAAGTFDQWGQGTLVTVSS [Ctrl] showed nd (0 of 6 replicates). The variant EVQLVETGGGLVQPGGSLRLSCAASGFTLNSYGISWVRQAPGKGPEWVSVIYSDGRRTFYSDNVKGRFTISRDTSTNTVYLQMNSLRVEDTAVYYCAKGRAAGTFDSWGQGTLVTVSS [Ctrl] gave 1.4 nM (6 of 6 replicates). For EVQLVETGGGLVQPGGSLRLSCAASGFTLNEYGISWVRQAPGKGPEWVSVIYSDGQRTFYSDSVKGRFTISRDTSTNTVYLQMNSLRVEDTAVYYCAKGRAAGTFDSWGQGTLVTVSS [Ctrl], the assay gave 1.6 nM (6 of 6 replicates). With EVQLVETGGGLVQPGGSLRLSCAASKFTLNSYGISWVRQAPGKGPEWVSVIYSDGRRTFYGDSVKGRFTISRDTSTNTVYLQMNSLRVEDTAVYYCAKGRLAGTWDSWGQGTLVTVSS [Ctrl] the result was nd (0 of 6 replicates).

Extract of 2 entries:

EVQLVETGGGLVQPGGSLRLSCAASGFTLNSYGISWVRQAPGKGPEWVSVIYSDGRRTFYSDNVKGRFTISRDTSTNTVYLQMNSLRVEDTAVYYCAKGRAAGTFDSWGQGTLVTVSS [Ctrl]: 1.4 nM (6 of 6 replicates).
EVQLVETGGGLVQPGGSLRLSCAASKFTLNSYGISWVRQAPGKGPEWVSVIYSDGRRTFYGDSVKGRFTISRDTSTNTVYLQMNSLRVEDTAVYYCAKGRLAGTWDSWGQGTLVTVSS [Ctrl]: nd (0 of 6 replicates).

The range of this assay differs from that of the first round, and the authors advise against merging the two.
In the paper, a design with two or fewer of six values counts as a poor binder.